# From patent US4968672A, “Adenosine receptor prodrugs” (priority 1987, dated 1990)
# Experiments:
# [1] = tested on: adenosine receptors (kidney and non-renal vasculature); test: blood pressure and sodium excretion in CHA-treated rats (Table 4); assay type: in vivo, rat
# acute renal failure = acute renal failure models (ischemia, glycerol injection); assay type: in vivo; details: compared with theophylline and 8-phenyltheophylline
# adenosine A1-receptors = details: 0.1 mg/kg NECA and 0.1 to 1.0 mg/kg XAC; cited from earlier work
smiles,measurement,setting,value
CCCn1c(=O)c2[nH]c(-c3ccc(OCC(=O)NCCN)cc3)nc2n(CCC)c1=O [Compound 1a],reversal of hypotensive effect of adenosine agonists (non-renal vasculature),[1],reversed by XAC
same,effect in acute renal failure,acute renal failure,act in the same manner except for considerably greater potency and selectivity
same,heart rate and blood pressure with NECA,adenosine A1-receptors,heart rate remained relatively constant whereas blood pressure diminished to a degree comparable to the absence of XAC
